Among the data in publication PMC11026475 are K0.5 and Vmax values, retold here.

The series has as its system Nc1ncnc2c1ncn2[C@@H]1O[C@H](COP(=O)(O)OP(=O)(O)OP(=O)(O)O)[C@@H](O)[C@H]1O. In words: purified protein. Conditions: Mg2+ (MgCl2), 100 mM HEPES, 20% glycerol, pH 7, 25 °C, 0-8 mM ATP, Hill coefficient 1.96.

With RtxB-NBD (Kingella kingae ATCC 23330), the K0.5 worked out at 0.74 ± 0.02 mM and the Vmax is listed as 227.0 ± 2.9 (s.d.).
